Permeability data for macrocyclic peptides

Source: CycPeptMPDB (Li et al. 2023), which took these values from Taechalertpaisarn et al. 2022, doi:10.1021/acs.jmedchem.2c00010.

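The data file gives no further conditions (lipid, pH, time, direction or concentration), and values from different papers need not be comparable. Other peptides of the study may be missing here. Peptides that the database sets to -10, its floor, are left out.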

PAMPA is the parallel artificial membrane permeability assay, which has no cells and reads passive diffusion.
Caco-2 values are permeabilities across monolayers of Caco-2 human intestinal cells.
P is given in units of 10^-6 cm/s (from log10 values with two decimals); larger means faster passage.
Cells with "n/a" have no entry in this list.

| compound | PAMPA (10^-6 cm/s) | Caco-2 (10^-6 cm/s) |
|---|---|---|
| CC(C)C[C@@H]1NC(=O)[C@@H](CCC(=O)N2CCCC2)NC(=O)[C@@H](CC(C)C)NC(=O)[C@@H](CC(C)C)NC(=O)[C@H]2CCCN2C(=O)[C@H](CC(C)C)NC1=O | 0.3 | n/a |
| CC(C)C[C@@H]1NC(=O)[C@H](CCc2ccccc2)NC(=O)[C@@H](CC(C)C)NC(=O)[C@H](CC2CCCCC2)NC(=O)[C@@H](CCC(=O)N2CCCC2)NC(=O)[C@H]2CCCN2C1=O | 13 | n/a |
| CC(C)C[C@@H]1NC(=O)[C@@H](CC(C)C)NC(=O)[C@@H](CCC(=O)N2CCCC2)NC(=O)[C@@H](CC(C)C)NC(=O)[C@@H](CC(C)C)NC(=O)[C@H]2CCCN2C1=O | 1.1 | n/a |
| CC(C)C[C@@H]1NC(=O)[C@H](CCc2ccccc2)NC(=O)[C@@H](CC(C)C)NC(=O)[C@H](CCC(=O)N2CCCC2)NC(=O)[C@@H](C)NC(=O)[C@H]2CCCN2C1=O | 0.25 | n/a |
| CC[C@@H]1NC(=O)[C@@H](CC(C)C)NC(=O)[C@H](CCC(=O)N2CCCC2)NC(=O)[C@@H](C)NC(=O)[C@H]2CCCN2C(=O)[C@H](CC(C)C)NC1=O | 0.0041 | n/a |
| CC(C)C[C@@H]1NC(=O)[C@@H](CC(C)C)NC(=O)[C@@H](CCC(=O)N2CCCC2)NC(=O)[C@@H](CC(C)C)NC(=O)[C@H]2CCCN2C(=O)[C@H](CC(C)C)NC1=O | 0.65 | n/a |
| CC(C)C[C@@H]1NC(=O)[C@@H](CC(C)C)NC(=O)[C@H]2CCCN2C(=O)[C@H](CC(C)C)NC(=O)[C@H](CCC(=O)N2CCCC2)NC(=O)[C@@H](CC(C)C)NC1=O | n/a | 0.2 |
| CC(C)C[C@@H]1NC(=O)[C@H](c2ccccc2)NC(=O)[C@@H](CC(C)C)NC(=O)[C@H](CCC(=O)N2CCCC2)NC(=O)[C@@H](CC(C)C)NC(=O)[C@H]2CCCN2C1=O | 0.63 | n/a |
| CC(C)C[C@@H]1NC(=O)[C@@H](CCC(=O)N2CCCC2)NC(=O)[C@H]2CCCN2C(=O)[C@H](CC(C)C)NC(=O)[C@H](c2ccccc2)NC(=O)[C@@H](CC(C)C)NC1=O | 5.9 | n/a |
| CC(C)C[C@@H]1NC(=O)[C@H](Cc2ccc3ccccc3c2)NC(=O)[C@@H](CC(C)C)NC(=O)[C@H](CCC(=O)N2CCCC2)NC(=O)[C@@H](CC2CCCCC2)NC(=O)[C@H]2CCCN2C1=O | 3.7 | n/a |
| CC(C)C[C@@H]1NC(=O)[C@@H](CC(C)C)NC(=O)[C@H](CC(C)C)NC(=O)[C@@H](CCC(=O)N2CCCC2)NC(=O)[C@H]2CCCN2C(=O)[C@H](CC(C)C)NC1=O | 1.4 | 0.39 |
| CC(C)C[C@@H]1NC(=O)[C@@H](CC(C)C)NC(=O)[C@@H](CC(C)C)NC(=O)[C@@H](CCC(=O)N2CCCC2)NC(=O)[C@H]2CCCN2C(=O)[C@H](CC(C)C)NC1=O | 1.7 | n/a |
| CC(C)C[C@@H]1NC(=O)[C@H](Cc2ccc3ccccc3c2)NC(=O)[C@@H](CC(C)C)NC(=O)[C@H](CC2CCCCC2)NC(=O)[C@@H](CCC(=O)N2CCCC2)NC(=O)[C@H]2CCCN2C1=O | 5.2 | n/a |
| CC(C)C[C@@H]1NC(=O)[C@@H](CC(C)C)NC(=O)[C@H](CCC(=O)N2CCCC2)NC(=O)[C@@H](C)NC(=O)[C@H]2CCCN2C(=O)[C@H](CC(C)C)NC1=O | 0.032 | n/a |
| CC(C)C[C@@H]1NC(=O)[C@H](Cc2ccc3ccccc3c2)NC(=O)[C@@H](CC(C)C)NC(=O)[C@H](CCC(=O)N2CCCC2)NC(=O)[C@@H](CC(C)C)NC(=O)[C@H]2CCCN2C1=O | 1.9 | n/a |
| CC(C)C[C@H]1NC(=O)[C@H]2CCCN2C(=O)[C@H](CCC(=O)N2CCCC2)NC(=O)[C@@H](CC(C)C)NC(=O)[C@@H](CC(C)C)NC(=O)[C@@H](CC(C)C)NC1=O | 1.3 | n/a |
| CC(C)C[C@@H]1NC(=O)[C@@H](CC(C)C)NC(=O)[C@H](CCC(=O)N2CCCC2)NC(=O)[C@@H](CC2CCCCC2)NC(=O)[C@H]2CCCN2C(=O)[C@H](CC(C)C)NC1=O | 2.2 | n/a |
| CC[C@@H]1NC(=O)[C@@H](CC(C)C)NC(=O)[C@H](CC(C)C)NC(=O)[C@@H](CCC(=O)N2CCCC2)NC(=O)[C@H]2CCCN2C(=O)[C@H](CC(C)C)NC1=O | 0.19 | n/a |
| CC(C)C[C@@H]1NC(=O)[C@H](c2ccccc2)NC(=O)[C@@H](CC(C)C)NC(=O)[C@H](C)NC(=O)[C@@H](CCC(=O)N2CCCC2)NC(=O)[C@H]2CCCN2C1=O | 0.78 | n/a |
| CC(C)C[C@@H]1NC(=O)[C@@H](CC(C)C)NC(=O)[C@@H](CC(C)C)NC(=O)[C@@H](CC(C)C)NC(=O)[C@@H](CCC(=O)N2CCCC2)NC(=O)[C@H]2CCCN2C1=O | 0.55 | n/a |
| COC(=O)CC[C@H]1NC(=O)[C@H]2CCCN2C(=O)[C@H](CC(C)C)NC(=O)[C@H](CC(C)C)NC(=O)[C@@H](CC(C)C)NC(=O)[C@H](CC(C)C)NC1=O | 1.9 | n/a |
| CC(C)C[C@@H]1NC(=O)[C@H](CCc2ccccc2)NC(=O)[C@@H](CC(C)C)NC(=O)[C@H](CCC(=O)N2CCCC2)NC(=O)[C@@H](CC2CCCCC2)NC(=O)[C@H]2CCCN2C1=O | 4 | n/a |
| CC(C)C[C@@H]1NC(=O)[C@H](CCc2ccccc2)NC(=O)[C@@H](CC(C)C)NC(=O)[C@H](CCC(=O)N2CCCC2)NC(=O)[C@@H](CC(C)C)NC(=O)[C@H]2CCCN2C1=O | 1 | n/a |

A selection of 3 entries from above:

compound	PAMPA (10^-6 cm/s)	Caco-2 (10^-6 cm/s)
CC(C)C[C@@H]1NC(=O)[C@@H](CC(C)C)NC(=O)[C@H]2CCCN2C(=O)[C@H](CC(C)C)NC(=O)[C@H](CCC(=O)N2CCCC2)NC(=O)[C@@H](CC(C)C)NC1=O	n/a	0.2
CC(C)C[C@@H]1NC(=O)[C@H](Cc2ccc3ccccc3c2)NC(=O)[C@@H](CC(C)C)NC(=O)[C@H](CCC(=O)N2CCCC2)NC(=O)[C@@H](CC2CCCCC2)NC(=O)[C@H]2CCCN2C1=O	3.7	n/a
COC(=O)CC[C@H]1NC(=O)[C@H]2CCCN2C(=O)[C@H](CC(C)C)NC(=O)[C@H](CC(C)C)NC(=O)[C@@H](CC(C)C)NC(=O)[C@H](CC(C)C)NC1=O	1.9	n/a